Laboratory results taken from ChEMBL document CHEMBL1127731, “Structure-activity study of neuropeptide FF: contribution of N-terminal regions to affinity and activity” (J Med Chem, 1994).

Chains of the proteins cited; added tags and fusions are not shown. Lines headed by an entry give the natural chain unless they say otherwise; changes in a name come on top.
UniProt Q9EQD2: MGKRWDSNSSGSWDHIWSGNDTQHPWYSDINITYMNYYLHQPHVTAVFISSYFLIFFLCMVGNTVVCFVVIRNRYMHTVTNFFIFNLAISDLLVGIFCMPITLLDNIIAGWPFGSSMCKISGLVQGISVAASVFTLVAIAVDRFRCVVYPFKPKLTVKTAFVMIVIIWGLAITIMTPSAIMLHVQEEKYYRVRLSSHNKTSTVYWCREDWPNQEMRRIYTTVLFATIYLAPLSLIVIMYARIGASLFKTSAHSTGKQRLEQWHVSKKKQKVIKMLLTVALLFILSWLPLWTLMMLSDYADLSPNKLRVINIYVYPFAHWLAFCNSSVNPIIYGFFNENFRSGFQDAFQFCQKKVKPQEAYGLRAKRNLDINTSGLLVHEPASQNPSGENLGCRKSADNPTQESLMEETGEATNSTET

Target: Neuropeptide FF receptor 2 (Rattus norvegicus, UniProt Q9EQD2)
Experiment: Binding affinity for NPPF receptor in rat spinal cord membranes using the radioligand [125I]-[Tyr1]NPFF
Format: cell membranes, Membrane
Outline: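 Displacement of [125I][Tyr1]NPFF (0.1 nM final) from rat spinal cord membranes, 30 min at 25 °C, in 50 mM Tris-HCl pH 7.4 with 120 mM NaCl, 0.5% BSA, 0.1 mM bestatin, 1 mM EDTA, 0.5 mM diisopropylfluorophosphate. Unlabeled peptides 5×10^-11–10^-6 M; nonspecific binding with 10^-6 M [Tyr1]NPFF. Stopped by ice-cold buffer and centrifugation; pellet gamma-counted. Ki via Cheng-Prusoff from IC50; three determinations.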

N=C(N)NCCC[C@H](NC(=O)[C@H](CCC(N)=O)NC(=O)[C@@H]1CCCN1)C(=O)N[C@@H](Cc1ccccc1)C(N)=O
Ki: 0.0155 µM
